Test system: laser‐induced CNV
Experiment: Laser‐induced rat CNV model
Assay type: in vivo, rats
Details: regorafenib eye‐drops 21.2 mg/mL twice daily 14 days, aflibercept 200 μg/eye single intravitreal injection, Dunnett test vs vehicle eye‐drops
Text: The animals were arranged in ascending order of body weights and animals close to the median of the body weights were serially allocated into groups (13 animals per group).
The ocular fundus of the eye of each animal was observed using a slit lamp (SL‐130; Carl Zeiss Meditec AG). Laser was irradiated on eight sites of the retina using a Multicolor Laser Photocoagulator (MC‐300; NIDEK Co., Ltd.) to induce CNV.
Regorafenib eye‐drops and aflibercept were used as test articles. Just after the laser irradiation (the day of the laser irradiation was the start date of repeated ocular instillation), vehicle eye‐drops and regorafenib eye‐drops at 21.2 mg/mL were topically administered twice daily to the eyes induced CNV for 14 days. Just after the laser irradiation, aflibercept (200 μg/eye) was administered by intravitreal injection once. […]
Photographs of CNV sites were taken using a confocal microscope (ECLIPSE TE2000‐U; Nikon Instech Co., Ltd.). The areas of CNV sites were calculated using ImageJ Software (National Institutes of Health).
The CNV areas of the laser‐irradiated eight sites/eye, excluding data unsuitable for evaluation (eg, irradiation sites could not be confirmed; ill‐defined border; damaged sample), were used for analysis. The mean value of CNV areas was calculated for each animal with at least three irradiation sites available for analysis. […]

Substance: Aflibercept: 40 mg/mL EYLEA Injection For Intravitreal Injection; anti‐VEGF agent, positive control
- CNV area: significantly suppressed

— PMC6864407 (Pharmacology Research & Perspectives, 2019)
